“Also recorded” adds a separate entry of the source.
Columns and labels:
[1] = tested on: plasma lipoproteins and 600 lipid species; test: Phase I trial lipoprotein (1H-NMR) and lipidomic (UHPLC-MS) profiling of fasting plasma; format: in vivo, human; conditions: for serum lipid levels (glycerolipids, glycerophospholipids, sphingolipids; atherogenic lipid classes): within 12 weeks of treatment
Description: To test the lipid-lowering effects of Pemvidutide, an analysis of Phase I clinical trial (NCT0456124) data was carried out. The subjects with overweight/obesity (BMI 25-40 kg/m^2) were randomized at 1 site in Australia (NCT0456124). Subjects were randomized 4:1 pemvidutide:placebo, with placebos pooled. The pemvidutide doses were 1.2 mg, 1.8 mg, and 2.4 mg, administered weekly for twelve (12) weeks, with no dose titration or adjunctive lifestyle intervention (no diet or exercise interventions). […] Lipoprotein and glycoprotein profiling covering 33 lipoprotein related parameters was performed by ^1H-NMR on fasting plasma samples obtained at Day −1 (baseline), Day 43, and Day 84 from the 34 subjects who completed NCT0456124. Lipidomic profiling covering 600 lipid species was performed by ultra-high performance liquid chromatography-mass spectrometry on fasting plasma samples obtained at Day −1 (baseline), Day 43, and Day 84 from the 34 subjects who completed NCT0456124. For the lipid profiling, plasma fractionation was performed either using methanol to extract fatty acyls, bile acids, steroids, and lyso-glycerophospholipids, or using a chloroform/methanol mix to extract glycerolipids, cholesteryl esters, sphingolipids, and glycerophospholipids. Lipid classification followed the classification system proposed by Fahy et al. (J. Lipid Res. 2005; 46:839-861) and the LIPID MAPS initiative (http://www.lipidmaps.org. See FIG. 1.
The color code represents the log 2 (robust fold-change) with blue colors denoting reduced lipoproteins (negative fold-changes) and red colors denoting increased lipoproteins (positive fold-changes).
Given the observed changes in the total cholesterol, triglycerides and lipoproteins, an evaluation of the serum lipid composition covering 600 lipid species at Day −1 (baseline), Day 43, and Day 84 from the 34 subjects who completed NCT0456124 was performed. Results are presented in FIG. 3 as log 2 pairwise fold change with blue colors denoting a reduction in the lipid relative to baseline, and red an increase. The grey/black bars indicate significant p-values of Wilcoxon test.
The horizontal dashed line represents the lower limit of significance, while the vertical lines show a fold-change from baseline of ±0.75 on the log 2 scale. Responses in the upper left quadrant indicate particularly meaningful changes in the atherogenic lipids.

[2] = tested on: ABCG5 gene expression in liver; test: Liver gene expression by RT-PCR in diet-induced obese hamsters: ABCG5; format: in vivo, male Golden Syrian hamsters; conditions: 10 nmol/kg SC daily for 21 days, as opposed to semaglutide and vehicle
Description: The study was conducted in male Golden Syrian hamsters placed on a free choice diet (free choice between a chow diet with normal tap water or a high fat/cholesterol diet (Safe Diets, 40.8% fat, 14.8% protein, 44.4% carbohydrates and 0.5% cholesterol, 4444.2 kcal/kg diet) with 10% fructose enriched tap water (0.4 kcal/L) provided ad libitum for a minimum of 20 weeks prior to the study start and until the end of the experiment. After randomization based on body weight, hamsters were assigned to three groups of 5 animals receiving vehicle, pemvidutide (10 nmol/kg) or semaglutide (10 nmol/kg) administered subcutaneously daily for 21 days. After 21 days, hamsters were sacrificed, and livers were collected. Total RNA was extracted from frozen liver tissue before measuring gene expression by RT-PCR across a range of markers including CYP7A, ABCA1, ABCG1, ABCG5, ABCG8, SREBP1c, SRB1 and LDL-R.

[3] = tested on: diet-induced obese hamsters; test: Macrophage-to-feces reverse cholesterol transport study in diet-induced obese hamsters; format: in vivo, male Golden Syrian hamsters
Description: The study was conducted in male Golden Syrian hamsters placed on a free choice diet (free choice between a chow diet with normal tap water or a high fat/cholesterol diet (Safe Diets, 40.8% fat, 14.8% protein, 44.4% carbohydrates and 0.5% cholesterol, 4444.2 kcal/kg diet) with 10% fructose enriched tap water (0.4 kcal/L) provided ad libitum for a minimum of 20 weeks prior to the study start and until the end of the experiment. After randomization based on body weight and plasma cholesterol levels, hamsters were assigned to two groups of ten (10) animals receiving vehicle or pemvidutide (10 nmol/kg) administered subcutaneously daily for 35 days and during a 72-hour macrophage-to-feces reverse cholesterol transport (RCT) experiment. Body weight was measured three (3) times per week. On day 35, hamsters were six (6)-hour fasted and blood (150 μL/heparin) was collected by retro-orbital bleeding under isoflurane anesthesia to isolate plasma and measure fasting plasma triglycerides, total cholesterol, LDL-cholesterol and HDL-cholesterol levels. On day 36, Hamsters were injected intraperitoneally with oxidized LDL-loaded/[3H]-cholesterol labeled J774 macrophages to perform a 72-hour macrophage-to-feces RCT experiment, as previously described in Castro-Perez et al (Castro-Perez, et al.. Anacetrapib promotes reverse cholesterol transport and bulk cholesterol excretion in Syrian golden hamsters. J Lipid Res. 2011; 52: 1965-73). Blood was collected on heparin tubes, under slight isoflurane anesthesia 24, 48 and 72 hours after injection of the labeled J774 cells to measure radioactivity in plasma. Feces were continuously collected during the 72-hours experiment then weighed prior to measuring fecal [3H]-cholesterol and [3H]-bile acids after chemical extraction from feces homogenate. After 72 hours, hamsters were sacrificed, and livers were collected to measure hepatic lipid after chemical extraction from liver sample homogenate.
Following injection of the [3H]-cholesterol labeled J774 macrophages, [3H]-cholesterol and/or [3H]-bile acid (resulting from the enzymatic conversion of [3H]-cholesterol in the liver) were measured in plasma, liver and feces samples at 72 hours, and expressed as the percentage of [3H]-cholesterol injected dose.

[4] = 10 nmol/kg SC daily for 35 days, vs vehicle

Structure (SMILES): CC[C@H](C)[C@H](NC(=O)[C@H](Cc1ccccc1)NC(=O)[C@H](CCC(=O)O)NC(=O)[C@@H]1CCCCNC(=O)CC[C@H](NC(=O)[C@H](CC(=O)O)NC(=O)[C@H](CC(C)C)NC(=O)[C@H](Cc2ccc(O)cc2)NC(=O)[C@H](CCCCN)NC(=O)[C@H](CO)NC(=O)[C@H](Cc2ccc(O)cc2)NC(=O)[C@H](CC(=O)O)NC(=O)[C@H](CO)NC(=O)[C@@H](NC(=O)[C@H](Cc2ccccc2)NC(=O)[C@@H](NC(=O)CNC(=O)[C@H](CCC(N)=O)NC(=O)C(C)(C)NC(=O)[C@@H](N)Cc2c[nH]cn2)[C@@H](C)O)[C@@H](C)O)C(=O)N[C@@H](CCCCNC(=O)[C@H]2O[C@@H](OCCCCCCCCCCCCCCCCCC(=O)O)[C@H](O)[C@@H](O)[C@@H]2O)C(=O)N[C@@H](C)C(=O)N[C@@H](C)C(=O)N1)C(=O)N[C@@H](CCC(N)=O)C(=O)N[C@@H](Cc1c[nH]c2ccccc12)C(=O)N[C@@H](CC(C)C)C(=O)N[C@@H](CC(C)C)C(=O)N[C@@H](CCC(N)=O)C(=O)N[C@H](C(N)=O)[C@@H](C)O [pemvidutide]
- atherosclerotic plaque forming phosphatidyl-ethanolamine (PE) glycerophospholipids level ([1]; 1.8 mg dose, vs baseline): significantly reduced
- pro-atherogenic lyso-PC levels ([1]; 1.8 mg dose, vs baseline): significantly reduced
- number of VLDL and LDL particles and number of smaller HDL particles (2D-NMR) ([1]; Day 43 and Day 84 vs Day −1, 1.2, 1.8, 2.4 mg): tend to be reduced
- reductions across multiple bioactive lipid classes compared to placebo ([1]; at Day 85): substantial and highly statistically significant reductions
- serum lipid levels (glycerolipids, glycerophospholipids, sphingolipids; atherogenic lipid classes) ([1]; vs baseline): significantly reduced
- serum lipid levels (glycerolipids, glycerophospholipids, sphingolipids; atherogenic lipid classes) ([1]; vs baseline, listed as Pemvidutide): significantly reduced; also recorded: statistically significant reductions
- ABCG5 gene expression in liver, fold change compared to vehicle [2]: significant increase
- liver fatty acids [3, 4]: lowering
- liver triglyceride [3, 4]: lowering
- liver cholesterol ([3]; 10 nmol/kg SC daily for 35 days, vs vehicle, p<0.05): lowering
- plasma cholesterol (lower than vehicle) ([3]; 10 nmol/kg SC daily, day 35, vs vehicle): not considered statistically significant
- percentage change in body weight from baseline ([3]; 10 nmol/kg SC daily, day 35, vs vehicle, p<0.0001): significant impact
- plasma triglycerides ([3]; 10 nmol/kg SC daily, day 35, vs vehicle, p<0.0005): lowering
- plasma HDL-c ([3]; 10 nmol/kg SC daily, day 35, vs vehicle, p<0.005): lowering
- plasma LDL-c ([3]; 10 nmol/kg SC daily, day 35, vs vehicle, p<0.05): lowering
- liver weight ([3]; 10 nmol/kg SC daily, vs vehicle, p<0.005): reduction
- [3H]-bile acid in the feces, % of injected dose per gram of feces or total feces weight ([3]; 72 hours after labeled J774 macrophages, vs vehicle): trend toward an increase
- [3H]-cholesterol in the feces, % of injected dose per gram of feces or total feces weight ([3]; 72 hours after labeled J774 macrophages, vs vehicle, p<0.05): significant increase
- [3H]-cholesterol in plasma ([3]; after injection of labeled J774 macrophages, vs vehicle): lowering
